Data from patent US6520981B1, “Significance of dosimetry in photodynamic therapy of injured arteries” (The General Hospital Corporation, priority 1999, dated 2003).

## CN(C)c1ccc2nc3ccc(=[N+](C)C)cc-3sc2c1 [MB, methylene blue]
5 minutes after local delivery of 250 μg/ml MB, excitation 476 nm, emission 620-630 nm
  Distribution of MB in the carotid artery wall (fluorescence): strong homogenous fluorescent signal was detected in the entire thickness of the arterial wall
rat, in vivo
  Distribution of MB in the carotid artery wall (fluorescence): high-fluorescence signal throughout the vessel wall

Where two headings read alike, the source gives them in different places.
